# scFv variants of Ab-14 (light chain) against a SARS-CoV-2 spike peptide

Antigen: PDVDLGDISGINAS, a 14-residue peptide of the SARS-CoV-2 spike HR2 region.

Parent scFv Ab-14: VH joined to VL by three GGGGS repeats. Changes lie in the light chain CDRs alone.
VH: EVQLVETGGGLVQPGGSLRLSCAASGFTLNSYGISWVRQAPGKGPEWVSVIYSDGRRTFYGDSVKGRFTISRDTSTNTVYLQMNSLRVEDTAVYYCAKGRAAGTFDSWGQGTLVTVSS
VL: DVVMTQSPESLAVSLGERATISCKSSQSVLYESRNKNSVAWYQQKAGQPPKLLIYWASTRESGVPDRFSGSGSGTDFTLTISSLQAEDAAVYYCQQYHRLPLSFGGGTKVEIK

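The parent was found by panning a naive human phage display library on the peptide. This is the validation round: designs drawn from the data on random variants, tested in the same kind of assay. Their group label is 14L_GP_HC (GP: Gaussian process model; HC: hill climbing; a sequence that several methods proposed may carry one label only). The scFvs were displayed on barcoded MATa yeast, the peptide on MATalpha yeast. Mating (16 h, 30 °C) was followed by selection of diploids and sequencing of their barcodes. Read counts were normalised to the haploid input and turned into Kd by a linear fit to BCL2-family pairs of known affinity, for each replicate. There are six technical replicates.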

The whole VL of each variant is written out.
Scale: log10 of Kd in nM, estimated from mating counts; low values are strong binders.
Averages over replicates are reported, and they cover detected replicates only.
"n.d." means that the variant was in the library but no mating with the target was seen in that replicate; the authors take this as a sign of poor binding, and no number exists.

VL | log10 Kd (nM) by replicate | log10 Kd (nM), mean | control signals
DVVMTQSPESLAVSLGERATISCKLSQSVLQESRNKNSVAWYQQKAGQPPKLLIYDASTRESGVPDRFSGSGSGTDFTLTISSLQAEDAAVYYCQQYHRLPLSFGGGTKVEIK | -0.07 -0.07 -0.19 -0.14 -0.21 0.04 | -0.11 | 0/18
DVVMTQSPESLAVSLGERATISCKVLQSVVYEDRNKNSVAWYQQKAGQPPKLLIYHASTREDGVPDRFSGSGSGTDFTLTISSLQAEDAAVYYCQQYHRLPLSFGGGTKVEIK | -0.07 -0.55 -0.68 -0.53 -0.81 -0.40 | -0.51 | 1/18 (1.21)
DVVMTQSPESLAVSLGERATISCHSSPSVLYESRNVNSVAWYQQKAGQPPKLLIYNASTRESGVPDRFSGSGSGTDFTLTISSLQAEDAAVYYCQQYHRLPLSFGGGTKVEIK | -0.09 -0.12 -0.48 -0.44 -0.25 -0.37 | -0.29 | 0/18
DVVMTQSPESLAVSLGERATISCHQSPSVLYESRNKNSVAWYQQKAGQPPKLLIYNGSTREQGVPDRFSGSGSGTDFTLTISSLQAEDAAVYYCQQYHRLPLSFGGGTKVEIK | 0.16 0.30 0.20 0.18 0.15 0.24 | 0.21 | 1/18 (2.61)
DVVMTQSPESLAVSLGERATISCKLDQSALYESRNKNSVAWYQQKAGQPPKLLIYGASTRESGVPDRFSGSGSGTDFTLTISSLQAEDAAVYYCQQYHRLPLSFGGGTKVEIK | -0.26 -0.60 -0.68 -0.76 -0.59 -0.25 | -0.52 | 1/18 (1.07)
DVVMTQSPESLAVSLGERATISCKSLQSVLYESRDKNNVAWYQQKAGQPPKLLIYHASTREDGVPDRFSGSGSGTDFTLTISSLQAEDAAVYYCQQYHRLPLSFGGGTKVEIK | 0.04 0.03 -0.04 0.02 -0.08 0.15 | 0.02 | 1/18 (3.22)
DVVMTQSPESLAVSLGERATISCHVSPSVPYESRNKNSVAWYQQKAGQPPKLLIYNASTREEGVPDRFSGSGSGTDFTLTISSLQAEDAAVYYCQDYHRLPLSFGGGTKVEIK | -0.32 -0.49 -0.53 -0.49 -0.49 -0.29 | -0.44 | 0/18
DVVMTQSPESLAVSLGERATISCKSSQSVLYQSRNKNSVAWYQQKAGQPPKLLIYDASTRESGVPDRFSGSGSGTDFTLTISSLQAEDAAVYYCQQYHRLPLSFGGGTKVEIK | 0.37 0.22 0.25 0.12 0.18 0.46 | 0.27 | 1/18 (3.19)
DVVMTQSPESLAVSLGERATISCKSSISQLYESRNKGSVAWYQQKAGQPPKLLIYAASTRESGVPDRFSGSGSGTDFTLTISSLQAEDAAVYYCQQYHRLPLSFGGGTKVEIK | 0.42 0.39 0.24 0.13 -0.17 0.46 | 0.25 | 1/18 (2.65)
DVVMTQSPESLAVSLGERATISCKHSQSWLYESRNKNSVAWYQQKAGQPPKLLIYGASTRENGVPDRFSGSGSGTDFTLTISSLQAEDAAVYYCQQYHRLPLSFGGGTKVEIK | -0.05 0.27 -0.03 -0.02 -0.13 0.06 | 0.02 | 2/18 (2.96)
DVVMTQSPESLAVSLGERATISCKLYQSVLYESRNKNSVAWYQQKAGQPPKLLIYHASLREDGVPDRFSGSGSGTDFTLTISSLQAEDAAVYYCQQYHRLPLSFGGGTKVEIK | 0.80 1.00 0.59 0.65 0.60 0.73 | 0.73 | 1/18 (3.58)
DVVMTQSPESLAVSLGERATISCKFSQSVLYESRNKNSVAWYQQKAGQPPKLLIYNAVTRETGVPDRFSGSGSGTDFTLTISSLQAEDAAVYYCQQYHRLPLWFGGGTKVEIK | 1.54 1.28 1.63 1.26 1.53 1.21 | 1.41 | 3/18 (2.32)
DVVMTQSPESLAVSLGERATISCKSSMVYLYESRNKNSVAWYQQKAGQPPKLLIYGASTRESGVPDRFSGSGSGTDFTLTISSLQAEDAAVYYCQQYHRLPLSFGGGTKVEIK | 0.31 0.17 0.31 0.48 0.13 0.24 | 0.27 | 1/18 (1.84)
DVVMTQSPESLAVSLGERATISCKFSQSVVYESRTKNSVAWYQQKAGQPPKLLIYNASTRESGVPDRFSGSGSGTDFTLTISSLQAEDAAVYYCQQYHRLPLSFGGGTKVEIK | 0.11 0.18 0.09 0.22 0.11 0.27 | 0.16 | 1/18 (2.54)
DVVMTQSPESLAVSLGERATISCKSSQSFLYESRNVNSVAWYQQKAGQPPKLLIYHASTRESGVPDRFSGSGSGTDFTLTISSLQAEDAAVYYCQQYHRLPLSFGGGTKVEIK | 0.92 0.62 0.71 0.91 0.83 0.81 | 0.80 | 3/18 (2.71)
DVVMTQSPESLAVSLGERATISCKSSQGYHYESRNKNSVAWYQQKAGQPPKLLIYGASTRESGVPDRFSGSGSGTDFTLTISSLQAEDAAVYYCQQYHRLPLSFGGGTKVEIK | 0.49 0.49 0.27 0.24 0.37 0.52 | 0.40 | 1/18 (2.71)
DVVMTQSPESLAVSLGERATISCKSSISYLYESENKNSVAWYQQKAGQPPKLLIYNASQRESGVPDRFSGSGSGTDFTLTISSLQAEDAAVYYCQQYHRLPLSFGGGTKVEIK | 0.27 0.30 0.33 0.35 0.25 0.33 | 0.30 | 0/18
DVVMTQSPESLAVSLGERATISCKSAISYLEESRNKNSVAWYQQKAGQPPKLLIYEASTRESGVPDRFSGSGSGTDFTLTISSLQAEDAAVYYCQQYHRLPLSFGGGTKVEIK | 0.73 0.72 0.61 0.37 0.48 0.59 | 0.58 | 1/18 (2.06)
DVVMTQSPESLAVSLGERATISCKMMQGVLYESRVKNSVAWYQQKAGQPPKLLIYGASTRESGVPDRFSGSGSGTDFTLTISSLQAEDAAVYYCQQYHRLPLSFGGGTKVEIK | 0.65 0.64 0.66 0.92 0.58 0.59 | 0.67 | 1/18 (3.45)
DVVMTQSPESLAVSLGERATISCKASISVLYESRNENSVAWYQQKAGQPPKLLIYEASTREQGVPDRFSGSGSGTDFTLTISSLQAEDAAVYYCQQYHRLPLSFGGGTKVEIK | n.d. n.d. n.d. n.d. n.d. n.d. | n.d. | 1/18 (2.07)
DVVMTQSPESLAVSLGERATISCKSSQSFLYESRNKNSVAWYQQKAGQPPKLLIYGASTRESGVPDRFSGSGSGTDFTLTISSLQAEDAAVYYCQEYHRLPLSFGGGTKVEIK | 0.80 0.73 0.51 0.95 0.55 0.70 | 0.71 | 0/18
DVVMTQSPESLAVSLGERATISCKISQSVKFESRNKNSVAWYQQKAGQPPKLLIYDASTRESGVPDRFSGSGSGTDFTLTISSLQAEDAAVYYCQQYHRLPLSFGGGTKVEIK | 0.36 0.47 0.18 -0.05 0.02 -0.07 | 0.15 | 0/18
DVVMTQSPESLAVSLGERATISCKFYPSYLYESRNKNSVAWYQQKAGQPPKLLIYQASTRESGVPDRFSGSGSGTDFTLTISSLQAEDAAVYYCQQYHLLPLSFGGGTKVEIK | 0.30 0.08 -0.05 0.01 0.20 0.39 | 0.16 | 1/18 (2.08)
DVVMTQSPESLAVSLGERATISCKVSQSVLYESGTKNSVAWYQQKAGQPPKLLIYNASNRESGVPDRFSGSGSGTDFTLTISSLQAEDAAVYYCQQYHRLPLSFGGGTKVEIK | -0.07 -0.13 -0.17 -0.29 -0.42 -0.04 | -0.19 | 0/18
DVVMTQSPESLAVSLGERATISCKVSQSWLMESRNKNSVAWYQQKAGQPPKLLIYEASTRQSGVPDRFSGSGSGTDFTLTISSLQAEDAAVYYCQQYHRLPLSFGGGTKVEIK | -0.14 -0.28 -0.33 -0.38 -0.18 -0.05 | -0.23 | 1/18 (2.75)
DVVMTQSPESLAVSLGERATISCKYSQSVLYEWRNKNSVAWYQQKAGQPPKLLIYDASTRESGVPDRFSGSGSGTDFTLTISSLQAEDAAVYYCQQYHRLPLSFGGGTKVEIK | 0.61 0.43 0.37 0.36 0.41 0.31 | 0.41 | 1/18 (1.66)

Picked from the list: the 4 lowest averages where every replicate gave a value.

VL	log10 Kd (nM) by replicate	log10 Kd (nM), mean	control signals
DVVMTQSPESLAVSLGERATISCKLDQSALYESRNKNSVAWYQQKAGQPPKLLIYGASTRESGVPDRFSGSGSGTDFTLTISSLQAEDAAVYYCQQYHRLPLSFGGGTKVEIK	-0.26 -0.60 -0.68 -0.76 -0.59 -0.25	-0.52	1/18 (1.07)
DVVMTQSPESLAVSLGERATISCKVLQSVVYEDRNKNSVAWYQQKAGQPPKLLIYHASTREDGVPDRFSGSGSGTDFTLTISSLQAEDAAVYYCQQYHRLPLSFGGGTKVEIK	-0.07 -0.55 -0.68 -0.53 -0.81 -0.40	-0.51	1/18 (1.21)
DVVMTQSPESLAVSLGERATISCHVSPSVPYESRNKNSVAWYQQKAGQPPKLLIYNASTREEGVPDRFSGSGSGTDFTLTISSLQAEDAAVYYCQDYHRLPLSFGGGTKVEIK	-0.32 -0.49 -0.53 -0.49 -0.49 -0.29	-0.44	0/18
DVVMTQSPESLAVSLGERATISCHSSPSVLYESRNVNSVAWYQQKAGQPPKLLIYNASTRESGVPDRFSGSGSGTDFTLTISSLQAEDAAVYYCQQYHRLPLSFGGGTKVEIK	-0.09 -0.12 -0.48 -0.44 -0.25 -0.37	-0.29	0/18

Of ten entries with the parent sequence, four were seen in most replicates (averages 0.34 to 2.37), three in one and three in none, so single entries are noisy.
In the paper, a design with two or fewer of six values counts as a poor binder.
Values of this round are not directly comparable with the first-round values of the same sequences.
As a blank, each scFv also met three strains without target: over all light chain designs, 4% of these pairings were detected, typically at 2.64 and seldom below 1.59. Also given: how often the same scFv was detected with the empty control strains, with their mean in brackets.

Source: Li et al. 2023 (doi:10.1038/s41467-023-39022-2), MIT Lincoln Laboratory and A-Alpha Bio; data file from the FLAb repository.